# Experimental data as given in ChEMBL document CHEMBL1152448, “Discovery of a novel class of phosphodiesterase 10A inhibitors and identification of clinical candidate 2-[4-(1-methyl-4-pyridin-4-yl-1H-pyrazol-3-yl)-phenoxymethyl]-quinoline (PF-2545920) for the treatment of schizophrenia” (J Med Chem, 2009).
# Target: T1, cAMP and cAMP-inhibited cGMP 3',5'-cyclic phosphodiesterase 10A (Rattus norvegicus, UniProt Q9QYJ6)
# T1 sequence (Q9QYJ6 whole entry): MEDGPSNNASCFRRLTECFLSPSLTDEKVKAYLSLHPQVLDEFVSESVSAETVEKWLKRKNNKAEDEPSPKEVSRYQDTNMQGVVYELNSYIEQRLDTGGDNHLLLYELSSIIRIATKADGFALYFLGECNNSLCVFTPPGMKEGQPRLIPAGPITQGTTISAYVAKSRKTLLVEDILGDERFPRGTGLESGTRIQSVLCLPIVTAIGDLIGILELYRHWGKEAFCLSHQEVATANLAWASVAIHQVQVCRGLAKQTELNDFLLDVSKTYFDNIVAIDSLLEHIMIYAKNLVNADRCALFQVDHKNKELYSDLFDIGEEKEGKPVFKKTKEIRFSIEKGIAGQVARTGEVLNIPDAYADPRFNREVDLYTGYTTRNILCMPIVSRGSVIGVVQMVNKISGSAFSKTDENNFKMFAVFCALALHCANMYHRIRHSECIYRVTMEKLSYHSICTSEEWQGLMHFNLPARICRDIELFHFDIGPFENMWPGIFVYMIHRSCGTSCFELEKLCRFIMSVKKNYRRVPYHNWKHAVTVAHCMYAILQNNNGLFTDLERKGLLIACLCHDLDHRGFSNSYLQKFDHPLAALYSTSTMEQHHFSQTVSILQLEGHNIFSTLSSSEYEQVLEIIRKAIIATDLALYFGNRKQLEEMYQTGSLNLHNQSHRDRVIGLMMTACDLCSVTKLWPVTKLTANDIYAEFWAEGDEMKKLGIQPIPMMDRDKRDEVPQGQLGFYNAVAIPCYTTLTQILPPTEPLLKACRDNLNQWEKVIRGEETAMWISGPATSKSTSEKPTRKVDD
# Assay: Inhibition of rat recombinant PDE10A transfected in Sf9 cells
smiles,measurement,value
c1ccc2nc(COc3ccc(-c4n[nH]cc4-c4ccncc4)cc3)ccc2c1,IC50,423 pM
